Data on 62 compounds can be found in PubChem BioAssay AID743238 (Broad Institute, 2013).

This is a selection; strong and weak results do not stand in their true shares. Activity calls are given as the source filed them.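 Rule for the calls: active = mean normalized replicate activation at least 10% and every replicate at or above 10%; inconclusive = only one of the two criteria met; inactive = mean below 10% and not all replicates reach 10%.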

This experiment in a line: activators of inactive X chromosome reactivation, primary screen, imaging, XiGFP fibroblasts, GFP high-content imaging, set 2 (AID 743238).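 Note: 0% = median of on-plate neutral control wells and 100% = ellipticine 6 µM median.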 The conditions noted are these: XiGFP mouse fibroblasts, % GFP-positive cells imaging, 3 d; at 7.58 µM; stronger effect = higher value; cells co-treated with 5-aza-dC sensitizer; scaled so ellipticine positive control = 100%. In short, it runs like this:
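System: 68-5-11 XiGFP fibroblast line | Buffer or medium: DMEM containing 5-aza-dC | Compound: Single point | Times: Compounds 3 days, fix/stain 15 min at room temperature | Benchmarks: Positive control ellipticine, 6 µM final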
On to `O=C(OC1CN2CCC1CC2)c1cccc2[nH]cnc12` (configuration not stated), for which the activation was inactive: 0.017%.
For `CC(C)NC(=O)NP(=O)(Oc1ccccc1)Oc1ccccc1`, the activation is inactive: -0.0165%.
In the case of `CC(C)c1ccc(OP(=O)(Nc2ccccn2)Oc2ccccc2F)cc1` (configuration not stated), the activation is inactive: -0.135%.
With `COC(=O)C1(C)COP(=O)(N2CCCCCC2)OC1` (configuration not stated) the figure was inactive: 0.522%.
The result for `Cc1ccc(OP(=O)(Nc2ccc([N+](=O)[O-])cn2)Oc2ccc(C)cc2)cc1` reads inactive: -0.007%; that for `[N-]=[N+]=NC1CCCCC1NC(=O)c1cc([N+](=O)[O-])cc([N+](=O)[O-])c1` (configuration not stated), inactive: 0.12%.
Regarding `Cc1ccc2nc3c(c(C)c2c1)CC(C(Cl)Cl)S3` (configuration not stated), the activation is inactive: 0.05%.
The result for `COc1cc(C(=O)NCC2(N3CCOCC3)CCCCC2)ccc1OCC(C)C` reads inactive: -0.0075%; that for `O=[N+]([O-])c1ccc(-c2cc([N+](=O)[O-])c(O)c([N+](=O)[O-])c2)cc1`, inactive: 0.0055%.
With `C[As](=O)(O)c1cccc(C(=O)O)c1` the figure was inactive: -0.102%.
The result for `O=[As](O)(c1ccc(O)cc1)c1ccccc1O` reads inactive: 0.0645%; that for `O=[N+]([O-])c1cc(Oc2ccc([N+](=O)[O-])cc2C(F)(F)F)cc([N+](=O)[O-])c1`, inactive: -0.108%.
With `COc1ccc(N/C(=N/P(=O)(N2CCOCC2)N2CCOCC2)N2CCOCC2)cc1`, the activation was inactive: -0.0215%.
The result for `O=P1(N(CCCl)CCCl)OCCCN1CCCl` (configuration not stated) reads inactive: -0.091%.
The result for `O=P1(N(CCCl)CCCl)Nc2ccccc2N1` reads inactive: 0.0335%.
With `COc1cc(I)ccc1[As](=O)(O)O` the figure was inactive: -0.118%; with `COc1ccc2nc(NP(=O)(c3ccccc3)c3ccccc3)sc2c1`, inactive: 0.0065%.
Turning to `Cc1c2c(nc3ccccc13)SC(C(Cl)Cl)C2` (configuration not stated), the activation was inactive: 0%.
The result for `Cc1cc(=O)[nH]c(N[N+](=O)[O-])n1` reads inactive: 0.293%.
With `O=C(OC1CN2CCC1CC2)c1cccc([N+](=O)[O-])c1` (configuration not stated) the figure was inactive: 0.0925%; with `CCOC(=O)c1ccc(NC(=O)C(C)(CCl)SC)cc1` (configuration not stated), inactive: -0.072%.
With `O=C(O)C(=O)c1ccc(N(CCCl)CCCl)cc1` the figure was inactive: 0.064%; with `O=C(Nc1ccncc1[N+](=O)[O-])c1ccc([N+](=O)[O-])cc1[N+](=O)[O-]`, inactive: 0.136%.
Turning to `COC(=O)C1(C)COP(=O)(N2CCCC2)OC1` (configuration not stated), the activation was inactive: 0.0985%.
The result for `Cc1cc(SC(NC=O)C(Cl)(Cl)Cl)ncn1` (configuration not stated) reads inactive: 0.117%; that for `O=P(Nc1ccccn1)(c1cccc2ccccc12)c1cccc2ccccc12`, inactive: 0.212%.
As to `O=[N+]([O-])c1ccc(Nc2ccc(Oc3ccc([N+](=O)[O-])cc3[N+](=O)[O-])cc2)c([N+](=O)[O-])c1`, the activation was inactive: 0.211%.
With `CCOC(=O)Nc1cccc([As](=O)(O)O)c1` the figure was inactive: -0.05%; with `COP(=O)(OC)N1CC1c1ccccc1` (configuration not stated), inactive: 0.254%.
With `Cc1cc(SC(NC(=O)c2ccccc2)C(Cl)(Cl)Cl)nc(C(C)C)n1` (configuration not stated) the figure was inactive: 0.148%.
With `CCCCOc1ccc(C(=O)NCC2(N3CCCCC3)CCCCC2)cc1OC` the figure was inactive: -0.003%; with `O=C(O)C(O)c1ccc(N(CCCl)CCCl)cc1` (configuration not stated), inactive: -0.0235%.
For `CCOC(=O)Nc1ccc([As](=O)(O)O)c(O)c1`, the activation is inactive: 0.5%.
In the case of `CC1CCNP(=O)(N(CCCl)CCCl)O1` (configuration not stated), the activation was inactive: 0.0005%.
With `Nc1cccc([As](=O)(O)c2ccccc2)c1` the figure was inactive: -0.0065%; with `NS(=O)(=O)c1cccc(NC(=O)COC(=O)C(O)(c2ccccc2)c2ccccc2)c1`, inactive: -0.054%.
The result for `O=[As](O)(c1cccs1)c1cccs1` reads inactive: -0.0145%; that for `Cc1ccc(S(=O)(=O)N(CCCN)CCCc2c(C)nc(N)[nH]c2=O)cc1`, inactive: 0.0125%.
With `CN(C)C1(CNC(=O)c2ccc(S(C)(=O)=O)cc2)CCCCC1` the figure was inactive: 0.044%; with `CCCC1OP(=O)(Nc2ccccc2)OCC1CC` (configuration not stated), inactive: 0.362%.
`O=C(/C=C/c1ccccc1)OC1CN2CCC1CC2` (configuration not stated): the activation is inactive: 0.135%.
`Cc1ccc(C(=O)OC2CN3CCC2CC3)cc1` (configuration not stated): the activation is inactive: 0.0385%.
The result for `CC1CCC(C(C)C)C(OP(=O)(Nc2ccccn2)c2ccccc2)C1` (configuration not stated) reads inactive: 0.13%; that for `CN(C(=O)Cc1ccc(Cl)c(Cl)c1)[C@@H]1CCCC[C@H]1N1CCCC1`, inactive: 0.0735%.
With `CC(C)/C=N\N=C(\N)N[N+](=O)[O-]` the figure was inactive: 0%; with `COc1ccccc1CNC(=O)COC(=O)C(O)(c1ccccc1)c1ccccc1`, inactive: -0.0955%; with `CC(C)(C)C(=O)NC(Sc1ncccn1)C(Cl)(Cl)Cl` (configuration not stated), inactive: -0.328%.
With `O=P1(N(CCCl)CCCl)NCCC(C(F)(F)F)O1` (configuration not stated) the figure was inactive: 0.101%; with `CCOP(=O)(NC(=NC(C)c1ccccc1)NC(C)c1ccccc1)OCC` (configuration not stated), inactive: -0.0385%.
Regarding `CCC1=CC2Cc3nc4ccc(Cl)cc4c(N)c3C(C1)C2` (configuration not stated), the activation was inactive: -0.0175%.
With `CN(CCCl)Cc1cc(Cl)c(NC2=NCCN2)c(Cl)c1` the figure was inactive: 0.133%; with `CCOP(=O)(Nc1ccc(C)cn1)OCC`, inactive: 0.025%; with `CCOP(=O)(Nc1cccc2ccccc12)OCC`, inactive: 0.137%.
With `Nc1cccc2c([As](=O)(O)O)cccc12` the figure was inactive: -0.0195%; with `Cc1ccc(NCCc2c([N+](=O)[O-])cc([N+](=O)[O-])cc2[N+](=O)[O-])cc1`, inactive: -0.0035%.
The result for `CCCOP(=S)(Nc1nc(N)cc(=O)[nH]1)OCCC` reads inactive: -0.036%; that for `O=[As](O)(c1cccc(O)c1)c1cccc(O)c1`, inactive: 0.759%.
As to `O=C(OC1CN2CCC1CC2)c1ccc(Cl)cc1` (configuration not stated), the activation is inactive: 0.0295%.
The result for `CS(=O)(=O)c1ccc(Cl)c(NC(=O)COC(=O)C(O)(c2ccccc2)c2ccccc2)c1` reads inactive: -0.0365%.
For `COc1cc(C(=O)NCC2(N3CCOCC3)CCCCC2)cc(Cl)c1OC(C)C`, the activation is inactive: 0%.
The result for `CN(C(=O)Cc1ccccc1)[C@@H]1CC[C@]2(CCCO2)C[C@H]1N1CCCC1` reads inactive: -0.133%.
With `N#CCCN(C(=O)COC(=O)C(O)(c1ccccc1)c1ccccc1)c1ccc(F)cc1` the figure was inactive: -0.226%.
